In US6913892 one finds Ki data, which are given here for two substances.

Sequences of proteins named here, by UniProt entry; tags and fusion partners are left off. A change or cut given only in a name is not applied to a line headed by its entry.
UniProt P49146, whole entry: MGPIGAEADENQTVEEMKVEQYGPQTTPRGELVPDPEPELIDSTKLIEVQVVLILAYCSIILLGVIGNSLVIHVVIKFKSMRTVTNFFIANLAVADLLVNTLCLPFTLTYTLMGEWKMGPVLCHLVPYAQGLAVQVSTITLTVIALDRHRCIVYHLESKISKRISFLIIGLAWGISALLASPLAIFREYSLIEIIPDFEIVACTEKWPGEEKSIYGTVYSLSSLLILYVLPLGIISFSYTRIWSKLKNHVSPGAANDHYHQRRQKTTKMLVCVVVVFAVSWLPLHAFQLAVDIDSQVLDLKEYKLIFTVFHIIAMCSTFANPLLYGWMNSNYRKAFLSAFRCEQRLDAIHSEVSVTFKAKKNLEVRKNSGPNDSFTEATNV

As a reminder, the Ki is a dissociation constant, usually derived from enzyme kinetics or from competition with a known ligand.

This assay deals with human Y2 receptor (human) (UniProt P49146). The experiment in a line: 125I-PYY displacement, COS-7 membranes.

In turn, “porcine NPY18-36 (from UniProt P01304 27-45) (peptide)” yielded an inhibitory constant (Ki) of 4.2 nM.

Substance “porcine NPY20-36 (from UniProt P01304 29-45) (peptide)” returned an inhibition constant Ki of 3.6 nM.
